Sequences of proteins named here, by UniProt entry; tags and fusion partners are left off. A change or cut given only in a name is not applied to a line headed by its entry.
UniProt P43220, whole entry, stated change not applied: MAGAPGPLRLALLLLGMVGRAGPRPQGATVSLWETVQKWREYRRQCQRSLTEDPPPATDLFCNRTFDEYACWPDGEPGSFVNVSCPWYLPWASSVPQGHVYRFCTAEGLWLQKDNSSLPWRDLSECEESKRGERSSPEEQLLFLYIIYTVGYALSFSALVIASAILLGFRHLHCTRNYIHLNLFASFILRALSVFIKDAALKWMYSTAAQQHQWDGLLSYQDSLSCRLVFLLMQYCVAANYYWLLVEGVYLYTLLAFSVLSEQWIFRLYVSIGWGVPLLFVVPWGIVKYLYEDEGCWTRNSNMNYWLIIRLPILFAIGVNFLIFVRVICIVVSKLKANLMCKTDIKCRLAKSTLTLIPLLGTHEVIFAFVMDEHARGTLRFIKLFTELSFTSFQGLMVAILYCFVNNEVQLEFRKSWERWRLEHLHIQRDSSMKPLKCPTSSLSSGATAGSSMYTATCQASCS

The entries are a selection whose mix differs from that of the whole data set. Activity calls are given as the source filed them. The call rests on the fitted dose curve; in most records, active means well fitted activation curve with a large enough effect; inconclusive means small, poorly fitted or top-dose-only effect; inactive means no such curve, though single readings can be large or run the other way.
The compounds below were run against Glucagon-like peptide 1 receptor (Homo sapiens) (UniProt P43220) (assay: qHTS of GLP-1 Receptor Agonists). Conditions: HEK293 GLP-1R CRE-luciferase, luminescence, 4-6 h, cells express a hypersensitive GLP-1R form; at 45.6 µM (top of the series).
Excerpt: The overall goal of this project was to develop a novel assay for discovering small molecule ligands for class B1 G protein-coupled receptors (GPCRs). Very few agonists (or inverse agonists) with generally weak activity for this entire group of physiologically important receptors are known to date. To establish proof-of-principle that this critical bottleneck can be overcome with a suitable screening approach, our studies focused on the class B1 receptor for glucagon-like peptide-1 (GLP-1R), a potential therapeutic target for diabetes and neurodegenerative disease.
The assay was developed in a "mix and measure" format using a cell-based functional readout. Toward this goal, stably transfected HEK293 cell clones were established that co-express (i) a cAMP-responsive luciferase reporter gene, and (ii) GLP-1Rs that upon ligand interaction either stimulate (agonists) or inhibit (inverse agonists) luciferase activity. In different cell lines to be used for screening, expressed GLP-1Rs are specifically optimized for high sensitivity detection of either weak agonists (hypersensitive receptor) or inverse agonists (constitutively active receptor mutant). In addition, control cell lines were developed that express either the cAMP-responsive reporter gene without recombinant GLP-1Rs (enabling initial exclusion of GLP-1R independent effects of candidate probes), or the reporter gene together with wild type GLP-1Rs (for confirmation of probe activity at this receptor), or the reporter gene in combination with the constitutively active orphan receptor GPR119 (enabling initial exclusion of GLP-1R independent inhibitory effects of candidate inverse agonists).
To that end, this assay was optimized for 1536-well format and screened against the MLSMR.
NIH Molecular Libraries Probe Production Network [MLPCN]
NIH Chemical Genomics Center [NCGC]
PI Name: Martin Beinborn, Tufts Medical Center
In a white solid 1536-well plate, 6 uL of cells are dispensed in DMEM without phenol red, 10% Nu serum, and 1% pen-strep medium. The plates are then incubated for 12 hours at 37 deg C at 5% CO2 before 23 nL of compounds are added. After a 4-6 hr incubation at37 deg C and 5% CO2, 3 uL of detection reagent are added and after a 12 min incubation at RT, a luminescent read is obtained on the ViewLux.
`Fc1ccccc1NC1CCN(Cc2ccccc2)CC1` was tested, and the activation was inactive: -0.493%. `Cc1ccc(Nc2c([N+](=O)[O-])cc([N+](=O)[O-])cc2[N+](=O)[O-])cc1` was tested, and the activation was inactive: -5.8%. `Cc1ccc(C(=O)NCC2(N3CCCCC3)CCCCC2)o1` was tested, and the activation was inactive: -4.37%. In the case of `Cc1ccc(NC2(C#N)CCN(Cc3ccccc3)CC2)cc1`, the activation is reported as inactive: -6.31%. With `COc1ccc(C(c2nnnn2C2CCCCC2)N2CCC(n3c(=O)[nH]c4ccccc43)CC2)cc1` (stereo unspecified) the activation was inactive: -3.14%. For `CCN1CCC(Nc2cccc(F)c2)CC1`, the activation was inactive: -11.4%. In the case of `CC(C)(C)n1nnnc1C(c1ccnc2ccccc12)N1CCC(n2c(=O)[nH]c3ccccc32)CC1` (stereo unspecified), the activation is reported as inactive: 14.4%. In the case of `Cc1ccccc1NC1(C#N)CCN(Cc2ccccc2)CC1`, the activation is reported as inactive: 5.77%. `CN(C)c1ccc(C(=O)NCC2(N3CCCCC3)CCCCC2)cc1` was tested, and the activation was inactive: 4.31%. `Cn1c(=O)[nH]cc(N(CCCl)CCCl)c1=O` was tested, and the activation was inactive: -1.28%. With `O=C(NCC1(N2CCCCC2)CCCCC1)c1ccco1` the activation was inactive: 6.69%. In the case of `CC(C)(C)c1ccc(C(=O)NCC2(N3CCOCC3)CCCCC2)cc1`, the activation is reported as inactive: -3.72%. For `CN1CCC(Nc2ccc(F)c(Cl)c2)CC1`, the activation was inactive: -4.36%. With `CCOc1ncccc1C(=O)NCC1(N2CCOCC2)CCCCC1` the activation was inactive: 0.638%. `O=C(O)C1(Nc2ccccc2)CCN(Cc2ccccc2)CC1` was tested, and the activation was inactive: 9.46%. For `NN(c1ccccc1)C1CCN(CCc2ccccc2)CC1`, the activation was inactive: -3.2%. In the case of `CC(C)(C)OC(=O)N1CCC(Nc2ccccc2)CC1`, the activation is reported as inactive: 12.3%. `O=c1[nH]c2ccccc2n1C1CCN(C(c2cc3ccccc3o2)c2nnnn2C2CCCC2)CC1` (stereo unspecified) was tested, and the activation was inactive: -3.4%. `CCCOc1ccc(C(=O)NCC2(N(C)C)CCCCC2)cc1` was tested, and the activation was inactive: -1.63%. `COc1cc(C(=O)NCC2(N3CCOCC3)CCCCC2)cc(OC)c1OC` was tested, and the activation was inactive: 4.74%. For `COc1cc(OC)cc(C(=O)NCC2(N3CCOCC3)CCCCC2)c1`, the activation was inactive: 3.18%. In the case of `COc1cccc(C(c2nnnn2C2CCCC2)N2CCC(n3c(=O)[nH]c4ccccc43)CC2)c1OC` (stereo unspecified), the activation is reported as inactive: 1.69%. `COc1cccc(C(=O)N(c2cc(C)cc(C)c2)C2CCN(C(=O)OC(C)(C)C)CC2)c1` was tested, and the activation was inactive: 5.93%. In the case of `CCC(CO)(C(=O)OC1CN2CCC1CC2)c1ccccc1` (stereo unspecified), the activation is reported as inactive: 0.581%. In the case of `CN1CCC(Nc2ccc(Cl)cc2)CC1`, the activation is reported as inactive: 5.23%. In the case of `COc1cc(C(=O)NCC2(N3CCOCC3)CCCCC2)cc(OC)c1C`, the activation is reported as inactive: 24.4%. `CCCCn1nnnc1C(c1ccccc1)N1CCC(n2c(=O)[nH]c3ccccc32)CC1` (stereo unspecified) was tested, and the activation was inactive: 5.86%. For `O=C(NCC1(N2CCOCC2)CCCCC1)c1cc(Br)ccc1Cl`, the activation was inactive: -0.0839%. With `O=c1[nH]c2ccccc2n1C1CCN(C(c2cccs2)c2nnnn2C2CCCCC2)CC1` (stereo unspecified) the activation was inactive: 0.138%. With `O=c1[nH]c2ccccc2n1C1CCN(C(c2ccnc3ccccc23)c2nnnn2C2CCCC2)CC1` (stereo unspecified) the activation was inactive: 20.7%. In the case of `COc1ccc(C(=O)NCC2(N3CCOCC3)CCCCC2)cc1OC`, the activation is reported as inactive: -0.182%. `CCOC(=O)N1CCC(Nc2ccc(C)cc2)CC1` was tested, and the activation was inactive: -6.2%. In the case of `COc1cccc(C(c2nnnn2C(C)(C)C)N2CCC(n3c(=O)[nH]c4ccccc43)CC2)c1OC` (stereo unspecified), the activation is reported as inactive: 0%. `N/C(=N\O)c1c(N)no[n+]1[O-]` was tested, and the activation was inactive: -6.83%. In the case of `O=c1[nH]c2ccccc2n1C1CCN(C(c2cccs2)c2nnnn2C2CCCC2)CC1` (stereo unspecified), the activation is reported as inactive: -1.43%. For `O=C(O)c1cccc(Nc2c([N+](=O)[O-])cc([N+](=O)[O-])cc2[N+](=O)[O-])c1`, the activation was inactive: -1.26%. For `CCc1cc(C(=O)NCC2(N3CCCCC3)CCCCC2)sc1C`, the activation was inactive: 12.4%. For `O=C(OC1CN2CCC1CC2)C1c2ccccc2C=Cc2ccccc21` (stereo unspecified), the activation was inactive: -4.18%. For `CCCCn1nnnc1C(c1cccc(OC)c1OC)N1CCC(n2c(=O)[nH]c3ccccc32)CC1` (stereo unspecified), the activation was inactive: -3.41%. `N#Cc1ccc(C(=O)NCC2(N3CCCCC3)CCCCC2)cc1` was tested, and the activation was inactive: 2.28%. For `O=C(NCC1(N2CCOCC2)CCCCC1)c1ccccc1[N+](=O)[O-]`, the activation was inactive: -8.62%. `CC(C)(C)OC(=O)N1CCC(N(C(=O)c2ccccc2)c2ccc(Cl)cc2)CC1` was tested, and the activation was inactive: 0.324%. In the case of `O=C(NCC1(N2CCOCC2)CCCCC1)c1ccc([N+](=O)[O-])cc1`, the activation is reported as inactive: -1.85%. With `CCOC(=O)C(CC)C1=NC(C)(C)Cc2ccccc21.O=[N+]([O-])c1cc([N+](=O)[O-])c(O)c([N+](=O)[O-])c1` (stereo unspecified) the activation was inactive: -1.02%. `CN(C)C1(CNC(=O)c2cccc(C#N)c2)CCCCC1` was tested, and the activation was inactive: 1.95%. In the case of `O=c1[nH]c2ccccc2n1C1CCN(C(c2ccccc2)c2nnnn2C2CCCC2)CC1` (stereo unspecified), the activation is reported as inactive: 6.29%. `CCCN1CCC(Nc2cc(OC)cc(OC)c2)CC1` was tested, and the activation was inactive: -3.35%. `O=C(NCC1(N2CCOCC2)CCCCC1)c1ccccc1` was tested, and the activation was inactive: 4.2%. For `Cc1cc(N(CCCl)CCCl)ccc1C=O`, the activation was inactive: 9.97%. In the case of `c1ccc(CN2CCC(Nc3ccccc3)CC2)cc1`, the activation is reported as inactive: -6.18%. With `CC(C)(C)n1nnnc1C(c1cccc2ccccc12)N1CCC(n2c(=O)[nH]c3ccccc32)CC1` (stereo unspecified) the activation was inactive: -0.679%.

— PubChem BioAssay AID624172 (National Center for Advancing Translational Sciences (NCATS), 2012)
Further: % of control where 0% means no effect.
